The Kinase Knowledgebase extract (Sharma et al. 2016)

Amino acid sequences for entries named in this document (tags omitted).
UniProt P00533, whole entry, looked up: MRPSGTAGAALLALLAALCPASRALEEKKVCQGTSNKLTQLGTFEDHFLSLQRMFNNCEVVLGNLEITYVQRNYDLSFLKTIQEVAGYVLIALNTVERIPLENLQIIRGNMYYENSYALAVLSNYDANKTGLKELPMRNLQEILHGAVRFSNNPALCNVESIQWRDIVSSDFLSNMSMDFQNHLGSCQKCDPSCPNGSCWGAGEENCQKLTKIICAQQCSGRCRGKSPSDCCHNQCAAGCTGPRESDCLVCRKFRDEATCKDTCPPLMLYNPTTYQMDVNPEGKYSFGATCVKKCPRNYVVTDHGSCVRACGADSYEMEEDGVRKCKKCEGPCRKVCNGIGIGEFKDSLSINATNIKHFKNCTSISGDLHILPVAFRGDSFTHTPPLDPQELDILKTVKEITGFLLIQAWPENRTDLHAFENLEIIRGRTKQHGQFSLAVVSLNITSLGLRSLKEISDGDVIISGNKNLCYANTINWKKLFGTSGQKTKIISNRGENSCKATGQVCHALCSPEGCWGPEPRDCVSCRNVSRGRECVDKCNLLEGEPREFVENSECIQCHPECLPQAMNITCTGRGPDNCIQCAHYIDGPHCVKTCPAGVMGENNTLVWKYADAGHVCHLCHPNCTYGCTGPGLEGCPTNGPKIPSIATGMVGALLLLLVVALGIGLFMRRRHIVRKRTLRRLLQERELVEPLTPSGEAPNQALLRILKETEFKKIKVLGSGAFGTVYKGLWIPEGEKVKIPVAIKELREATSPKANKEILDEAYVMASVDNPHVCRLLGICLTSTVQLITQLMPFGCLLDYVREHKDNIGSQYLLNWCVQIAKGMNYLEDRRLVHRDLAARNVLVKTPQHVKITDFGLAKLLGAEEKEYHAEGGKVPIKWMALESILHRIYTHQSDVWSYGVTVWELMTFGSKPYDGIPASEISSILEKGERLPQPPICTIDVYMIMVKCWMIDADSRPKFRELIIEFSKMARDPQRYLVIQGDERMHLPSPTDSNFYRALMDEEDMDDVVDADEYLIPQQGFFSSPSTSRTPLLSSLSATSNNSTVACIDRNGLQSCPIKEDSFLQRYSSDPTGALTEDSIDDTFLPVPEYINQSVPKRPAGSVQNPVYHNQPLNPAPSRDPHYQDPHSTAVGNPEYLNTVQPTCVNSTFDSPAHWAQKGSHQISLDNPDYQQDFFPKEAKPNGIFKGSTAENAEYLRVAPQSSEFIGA

Target: EGFR (human) (UniProt P00533)
Conditions: a431

IC50: 10 µM
Compound: COc1cc2ncnc(Nc3cccc(Cl)c3)c2cc1OC
